In patent US11542293B2, “Sting modulator compounds, and methods of making and using” (Takeda Pharmaceutical Company Limited, priority 2017, dated 2023):

System: THP1-Dual cells (ISG54 promoter Lucia luciferase reporter)
Assay: THP-1 Dual Lucia Reporter Gene Assay
Assay type: cell-based, human
Details: Homo sapiens, THP1-Dual, 20 h, Lucia luciferase signal induction, 20 hours at 37° C., read-out: Cellular THP 1 EC50
Method: THP1-Dual™ cells (InvivoGen #thpd-nfis) were derived from the human THP-1 monocyte cell line by stable integration of the Lucia luciferase gene, a secreted luciferase reporter gene, under the control of an ISG54 (interferon-stimulated gene) minimal promoter in conjunction with five interferon (IFN)-stimulated response elements. […] The cell plates were dosed with 62.5 nL of the testing compounds, and then incubated at 37° C. for 20 hours. At the end of the incubation, 15 μL/well of the QUANTI-Luc™ (InvivoGen #rep-q1c1) were added, and luminescence was measured immediately using the LeadSeeker.
Compound concentration versus percent signal induction curves were fitted to generate EC50 values.

Compound	EC50 [µM]
N#Cc1cncnc1N[C@@H]1C[C@@H]2COP(=O)(S)O[C@@H]3[C@H](O)[C@@H](COP(=O)(S)O[C@H]2C1)O[C@H]3n1cnc2c(=O)[nH]c(N)nc21 (single isomer, unassigned) [Compound I-4a]	> 25
Nc1nc2c(ncn2[C@@H]2O[C@@H]3COP(=O)(S)O[C@H]4C[C@H](Oc5ccncn5)C[C@@H]4COP(=O)(S)O[C@@H]2[C@@H]3F)c(=O)[nH]1 (single isomer, unassigned) [Compound I-22a]	1 to 10
Nc1nc2c(ncn2[C@@H]2O[C@@H]3COP(=O)(S)O[C@H]4C[C@H](Oc5ccncn5)C[C@@H]4COP(=O)(S)O[C@@H]2[C@@H]3OCC(F)(F)F)c(=O)[nH]1 (single isomer, unassigned) [Compound I-32a]	1 to 10

Same assay, conditions: Lucia luciferase signal induction, 20 hours at 37° C., read-out: Cellular THP 1 EC50

Compound	EC50 [µM]
Nc1nc2c(ncn2[C@@H]2O[C@@H]3COP(=O)(S)O[C@H]4C[C@H](Oc5ccncn5)C[C@@H]4COP(=O)(S)O[C@@H]2C3)c(=O)[nH]1 (single isomer, unassigned) [Compound I-1a]	10 to 25
Nc1nc2c(ncn2[C@@H]2O[C@@H]3COP(=O)(S)O[C@H]4C[C@H](Nc5ccncn5)C[C@@H]4COP(=O)(S)O[C@@H]2[C@@H]3O)c(=O)[nH]1 (single isomer, unassigned) [Compound I-2a]	1 to 10
Nc1nc2c(ncn2[C@@H]2O[C@@H]3COP(=O)(S)O[C@H]4C[C@H](Nc5ccncn5)C[C@@H]4COP(=O)(S)O[C@@H]2[C@@H]3O)c(=O)[nH]1 (single isomer, unassigned) [Compound I-2b]	10 to 25
O=c1[nH]cnc2c1c(F)cn2[C@@H]1O[C@@H]2COP(=O)(S)O[C@H]3C[C@H](Oc4ccncn4)C[C@@H]3COP(=O)(S)O[C@@H]1[C@@H]2O (single isomer, unassigned) [Compound I-3a]	> 25
O=c1[nH]cnc2c1c(F)cn2[C@@H]1O[C@@H]2COP(=O)(S)O[C@H]3C[C@H](Oc4ccncn4)C[C@@H]3COP(=O)(S)O[C@@H]1[C@@H]2O (single isomer, unassigned) [Compound I-3b]	10 to 25
Nc1nc2c(ncn2[C@@H]2O[C@@H]3COP(=O)(S)O[C@H]4C[C@H](Oc5ccncn5)C[C@@H]4COP(=O)(S)O[C@@H]2[C@@H]3O)c(=O)[nH]1 (single isomer, unassigned) [Compound I-5a]	> 25
Nc1nc2c(ncn2[C@@H]2O[C@@H]3COP(=O)(S)O[C@H]4C[C@H](Oc5ccncn5)C[C@@H]4COP(=O)(S)O[C@@H]2[C@@H]3O)c(=O)[nH]1 (single isomer, unassigned) [Compound I-5b]	1 to 10
Nc1nc2c(ncn2[C@@H]2O[C@@H]3COP(=O)(S)O[C@H]4C[C@H](Oc5ccncn5)C[C@@H]4COP(=O)(S)O[C@@H]2[C@@H]3O)c(=O)[nH]1 (single isomer, unassigned) [Compound I-5c]	1 to 10
Nc1nc2c(ncn2[C@@H]2O[C@@H]3COP(=O)(S)O[C@H]4C[C@H](Oc5ccncn5)C[C@@H]4COP(=O)(S)O[C@@H]2[C@@H]3O)c(=O)[nH]1 (single isomer, unassigned) [Compound I-5d]	10 to 25
O=c1[nH]cnc2c1ncn2[C@@H]1O[C@@H]2COP(=O)(S)O[C@H]3C[C@H](Oc4ccncn4)C[C@@H]3COP(=O)(S)O[C@@H]1[C@@H]2O (single isomer, unassigned) [Compound I-9a]	10 to 25
O=c1[nH]cnc2c1ncn2[C@@H]1O[C@@H]2COP(=O)(S)O[C@H]3C[C@H](Oc4ccncn4)C[C@@H]3COP(=O)(S)O[C@@H]1[C@@H]2O (single isomer, unassigned) [Compound I-9b]	1 to 10
O=c1[nH]cnc2c1ncn2[C@@H]1O[C@@H]2COP(=O)(S)O[C@H]3C[C@H](Oc4ccncn4)C[C@@H]3COP(=O)(S)O[C@@H]1[C@@H]2O (single isomer, unassigned) [Compound I-9c]	> 25
O=c1[nH]cnc2c1ncn2[C@@H]1O[C@@H]2COP(=O)(S)O[C@H]3C[C@H](Oc4ccncn4)C[C@@H]3COP(=O)(S)O[C@@H]1[C@@H]2O (single isomer, unassigned) [Compound I-9d]	10 to 25
Cn1cnc2c(c(F)cn2[C@@H]2O[C@@H]3COP(=O)(S)O[C@H]4C[C@H](Oc5ccncn5)C[C@@H]4COP(=O)(S)O[C@@H]2[C@@H]3O)c1=O (single isomer, unassigned) [Compound I-12a]	> 25
Cn1cnc2c(c(F)cn2[C@@H]2O[C@@H]3COP(=O)(S)O[C@H]4C[C@H](Oc5ccncn5)C[C@@H]4COP(=O)(S)O[C@@H]2[C@@H]3O)c1=O (single isomer, unassigned) [Compound I-12b]	< 1
Nc1nc2c(ncn2[C@@H]2O[C@@H]3COP(=O)(O)O[C@H]4C[C@H](Nc5ccncn5)C[C@@H]4COP(=O)(S)O[C@@H]2[C@@H]3O)c(=O)[nH]1 (single isomer, unassigned) [Compound I-19a]	1 to 10
Nc1nc2c(ncn2[C@@H]2O[C@@H]3COP(=O)(O)O[C@H]4C[C@H](Nc5ccncn5)C[C@@H]4COP(=O)(S)O[C@@H]2[C@@H]3O)c(=O)[nH]1 (single isomer, unassigned) [Compound I-19b]	> 25
Nc1nc2c(ncn2[C@@H]2O[C@@H]3COP(=O)(S)O[C@H]4C[C@H](Oc5ccncn5)C[C@@H]4COP(=O)(S)O[C@@H]2[C@@H]3F)c(=O)[nH]1 (single isomer, unassigned) [Compound I-22b]	< 1

Compound	EC50 [µM]
Nc1nc2c(ncn2[C@@H]2O[C@@H]3COP(=O)(O)O[C@H]4C[C@H](Oc5ccncn5)C[C@@H]4COP(=O)(S)O[C@@H]2[C@@H]3O)c(=O)[nH]1 (single isomer, unassigned) [Compound I-23a]	> 25
Nc1nc2c(ncn2[C@@H]2O[C@@H]3COP(=O)(O)O[C@H]4C[C@H](Oc5ccncn5)C[C@@H]4COP(=O)(S)O[C@@H]2[C@@H]3O)c(=O)[nH]1 (single isomer, unassigned) [Compound I-23b]	1 to 10
Nc1nc2c(nnn2[C@@H]2C[C@@H]3COP(=O)(S)O[C@@H]4[C@@H](COP(=O)(S)O[C@@H]2C3)C[C@@H](Nc2ccncn2)[C@@H]4F)c(=O)[nH]1 (single isomer, unassigned) [Compound I-25a]	1 to 10
Nc1nc2c(nnn2[C@@H]2C[C@@H]3COP(=O)(S)O[C@@H]4[C@@H](COP(=O)(S)O[C@@H]2C3)C[C@@H](Nc2ccncn2)[C@@H]4F)c(=O)[nH]1 (single isomer, unassigned) [Compound I-25b]	> 25
Nc1nc2c(nnn2[C@@H]2O[C@@H]3COP(=O)(S)O[C@H]4C[C@H](Oc5ccncn5)C[C@@H]4COP(=O)(S)O[C@@H]2[C@@H]3O)c(=O)[nH]1 (single isomer, unassigned) [Compound I-30c]	1 to 10
Nc1nc2c(nnn2[C@@H]2O[C@@H]3COP(=O)(S)O[C@H]4C[C@H](Oc5ccncn5)C[C@@H]4COP(=O)(S)O[C@@H]2[C@@H]3O)c(=O)[nH]1 (single isomer, unassigned) [Compound I-30d]	> 25
Nc1nc2c(ccn2[C@@H]2O[C@@H]3COP(=O)(S)O[C@H]4C[C@H](Oc5ccncn5)C[C@@H]4COP(=O)(S)O[C@@H]2[C@@H]3O)c(=O)[nH]1 (single isomer, unassigned) [Compound I-31a]	> 25
Nc1nc2c(ccn2[C@@H]2O[C@@H]3COP(=O)(S)O[C@H]4C[C@H](Oc5ccncn5)C[C@@H]4COP(=O)(S)O[C@@H]2[C@@H]3O)c(=O)[nH]1 (single isomer, unassigned) [Compound I-31b]	1 to 10
Nc1nc2c(ncn2[C@@H]2O[C@@H]3COP(=O)(S)O[C@H]4C[C@H](Oc5ccncn5)C[C@@H]4COP(=O)(S)O[C@@H]2[C@@H]3OCC(F)(F)F)c(=O)[nH]1 (single isomer, unassigned) [Compound I-32b]	< 1
Nc1nc2c(ncn2[C@@H]2O[C@@H]3COP(=O)(S)O[C@@H]4[C@@H](COP(=O)(S)O[C@@H]2[C@@H]3O)C[C@@H](Nc2ccncn2)[C@H]4F)c(=O)[nH]1 (single isomer, unassigned) [Compound I-35c]	> 25
Nc1nc2c(ncn2[C@@H]2O[C@@H]3COP(=O)(S)O[C@@H]4[C@@H](COP(=O)(S)O[C@@H]2[C@@H]3O)C[C@@H](Nc2ccncn2)[C@H]4F)c(=O)[nH]1 (single isomer, unassigned) [Compound I-35d]	10 to 25
Nc1nc2c(ncn2[C@@H]2O[C@@H]3COP(=O)(S)O[C@H]4C[C@H](Nc5cc(=O)[nH]cn5)C[C@@H]4COP(=O)(S)O[C@@H]2[C@@H]3O)c(=O)[nH]1 (single isomer, unassigned) [Compound I-41a]	> 25
Nc1nc2c(ncn2[C@@H]2O[C@@H]3COP(=O)(S)O[C@H]4C[C@H](Nc5cc(=O)[nH]cn5)C[C@@H]4COP(=O)(S)O[C@@H]2[C@@H]3O)c(=O)[nH]1 (single isomer, unassigned) [Compound I-41b]	10 to 25
Nc1nc2c(ncn2[C@@H]2O[C@@H]3COP(=O)(S)O[C@H]4C[C@H](Nc5ncncn5)C[C@@H]4COP(=O)(S)O[C@@H]2[C@@H]3O)c(=O)[nH]1 (single isomer, unassigned) [Compound I-44a]	10 to 25
Nc1nc2c(ncn2[C@@H]2O[C@@H]3COP(=O)(S)O[C@H]4C[C@H](Nc5ncncn5)C[C@@H]4COP(=O)(S)O[C@@H]2[C@@H]3O)c(=O)[nH]1 (single isomer, unassigned) [Compound I-44b]	1 to 10
Nc1nc2c(ncn2[C@@H]2O[C@@H]3COP(=O)(S)O[C@H]4C[C@H](Oc5ccncn5)C[C@@H]4COP(=O)(S)O[C@@H]2C3)c(=O)[nH]1 (single isomer, unassigned) [I-lb]	1 to 10
Nc1nc2c(ncn2[C@@H]2O[C@@H]3COP(=O)(S)O[C@H]4C[C@H](Oc5ccncn5)C[C@@H]4COP(=O)(S)O[C@@H]2C3)c(=O)[nH]1 (single isomer, unassigned) [I-lc]	> 25
